Assay results reported in patent publication US20240307409A1, “ARGININE METHYLTRANSFERASE INHIBITOR AND USE THEREOF” (Cytosinlab Therapeutics Co., Ltd., priority 2021, published 2024).

The chains behind the UniProt entries cited, without tags or fusion partners.
UniProt Q99873, whole entry: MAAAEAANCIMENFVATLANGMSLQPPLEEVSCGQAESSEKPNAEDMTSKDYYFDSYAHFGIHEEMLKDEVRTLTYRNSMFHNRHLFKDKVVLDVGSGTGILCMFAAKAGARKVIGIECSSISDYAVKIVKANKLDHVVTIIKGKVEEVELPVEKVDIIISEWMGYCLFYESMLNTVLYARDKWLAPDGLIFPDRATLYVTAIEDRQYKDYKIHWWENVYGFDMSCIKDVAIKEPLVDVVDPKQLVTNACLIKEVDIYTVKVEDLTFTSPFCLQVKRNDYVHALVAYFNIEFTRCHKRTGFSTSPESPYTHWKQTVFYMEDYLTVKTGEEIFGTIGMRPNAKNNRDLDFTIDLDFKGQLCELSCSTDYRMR

Key:
Toledo cells = experiment: Toledo cell proliferation inhibition assay; settings: read-out: Toledo cell proliferation inhibition IC50; six-day assay, CellTiter-Glo
Description: • A. Purpose: to determine the effects of compounds on Toledo cells through a six-day cell proliferation assay. • B. Reagents and materials: • 1. Cell culture medium: RPMI 1640+10% FBS • 2. 384-well cell culture plate (Corning, item #3764) • 3. 0.4% Taipan Blue Staining Solution (Thermo Fisher, item #T10282) • 4. cell counting plate (Thermo Fisher, item #C10228) • 5. 50 ml reagent reservoir (Corning, item #4870) • 6. 50 ml conical sterile polypropylene centrifuge tube (Thermo Fisher, item #339653) • 7. Automatic cell counter (Thermo Fisher, item #AMQAX1000) • 8. CellTiter-Glo Luminescent Cell Viability Detection Reagent (Promega, item #G7572) • 9. SpectraMax i3x Multi-Mode Enzyme Labeling Instrument (Megaman Molecular Instruments, item #5024062) • C. Experimental method • 1. Resuspending the cells with a pipette. • 2. 0.4% Taipan blue staining solution and Toledo cells were mixed in equal proportion, and the cells were counted using an automatic cell counter. • 3. Toledo cells were diluted to a final concentration of 2000 cells per well and transferred to a 50 ml reagent reservoir. • 4. Diluted Toledo cells were added to a 384-well cell culture plate, 40 ul per well. • 5. The cells were shortly centrifuged and settled. • 6. The cells were incubated in a 37° C., 5% CO2 cell culture incubator. • 7. […] Signal of luminescence was detected with a SpectraMax i3x multi-mode enzyme labeling instrument.

PRMT1 = PRMT1 (Homo sapiens, UniProt Q99873); experiment: PRMT1 enzyme activity test; settings: read-out: PRMT1 IC50; 0.5 nM PRMT1, 3H-SAM, peptide
Description: PRMT1 enzyme activity test were performed in a buffer prepared on the same day 5 consisting of 10 mMTirs-HCl (pH=8.0), 0.01% Tween-20 and 1 mM DTT. The compounds were prepared to the highest inhibitor concentration ultimately required in the 100× reaction with 100% DMSO and then transferred to one well of a 384-well Echo plate (Echo-eligible 384-well polypropylene microplates 2.0, transparent, flat-bottomed) and sequentially diluted in the next well with a 3-fold dilution of 100% DMSO, and so on, with a total of 10 concentrations based on Precision. 100% DMSO was added to two empty wells to serve as control well without compound and control well without enzyme in the same 384-well Echo plate. 250 nL of compound was transferred from each well of the 384-well Echo plate to a 384-well assay plate (384-well polypropylene storage microplate) via the Echo 550 liquid processor. […] After 120 min of incubation, the assay was terminated by the addition of non-radiolabeled SAM (5 uL) to a final concentration of 125 uM, which diluted 3H-SAM to a level at which its incorporation into the peptide substrate was no longer detected. […] Plates were read on a microplate counter (MicroBeta2) to measure the amount of ^3H-labeled peptide bound to the surface of the detection plate, measured in counts per minute (cpm). […]

Compound	pIC50 (Toledo cells)	pIC50 (PRMT1)
CNCCN(C)Cc1ncccc1C1CCCC(COC)CC1 (stereo not shown)	5.30 to 6.00	> 7.30
CCOCC1(COCC)CC=C(c2cnccc2CN(C)CCNC)CC1	< 5.30	6.30 to 7.30

pIC50: −log10 of the molar value.
